Data as given in patent US20260035385A1, “BENZO NITROGEN-CONTAINING HETEROAROMATIC RING DERIVATIVE AND USE THEREOF IN MEDICINE” (Xizang Haisco Pharmaceutical Co., Ltd., priority 2021, published 2026).

Amino acid sequences for entries named in this document (tags omitted). Residues count along the entry.
UniProt P00751, 260-764 limits assumed: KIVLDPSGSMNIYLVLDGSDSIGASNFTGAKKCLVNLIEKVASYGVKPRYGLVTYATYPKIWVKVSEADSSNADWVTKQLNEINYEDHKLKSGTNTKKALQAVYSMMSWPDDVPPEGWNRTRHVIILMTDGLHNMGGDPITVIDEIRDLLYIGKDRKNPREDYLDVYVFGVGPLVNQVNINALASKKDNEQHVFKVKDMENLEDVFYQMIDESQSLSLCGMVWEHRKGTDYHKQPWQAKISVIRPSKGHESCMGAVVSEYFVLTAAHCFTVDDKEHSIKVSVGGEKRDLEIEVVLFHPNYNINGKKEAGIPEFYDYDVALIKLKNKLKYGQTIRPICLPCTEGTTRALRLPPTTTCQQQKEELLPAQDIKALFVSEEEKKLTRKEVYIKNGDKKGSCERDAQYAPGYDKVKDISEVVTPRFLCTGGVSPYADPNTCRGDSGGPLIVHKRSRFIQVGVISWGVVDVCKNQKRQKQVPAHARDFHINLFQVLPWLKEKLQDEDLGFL

Columns and labels:
Caco-2 cells = assay: Caco2 permeability test; assay type: in vitro ADME; conditions: Caco2, compared with the trifluoroacetate of LNP023, in words
Experimental: The experiment used a monolayer of Caco-2 cells incubated in triplicate in a 96-well Transwell plate. […] Acetonitrile containing internal standard was then added to precipitate the protein. […] The integrity of the cell monolayer after 2 h of incubation was assessed by leakage of Lucifer Yellow.

FB = FB (Homo sapiens, UniProt P00751); assay: biochemical

| SMILES | efflux ratio (Caco-2 cells) | IC50 (FB) |
| --- | --- | --- |
| [2H]C([2H])([2H])Oc1cc(C)c2[nH]ccc2c1CN1CC[C@H](C2CC2)C[C@H]1c1ccc(C(=O)O)cc1 [Trifluoroacetate of compound 7 (diastereomer 1), 4-((2S)-4-cyclopropyl-1-((5-(methoxy-d3)-7-methyl-1H-indol-4-yl)methyl)piperidin-2-yl)benzoic acid] | lower | – |
| COc1cc(C)c2[nH]ccc2c1CN1CC[C@@H](C2CC2)C[C@H]1c1ccc(C(=O)O)cc1 [Trifluoroacetate of compound 5 (diastereomer 1), 4-((2S)-4-cyclopropyl-1-((5-methoxy-7-methyl-1H-indol-4-yl)methyl)piperidin-2-yl)benzoic acid] | lower | < 500 nM |
